Measurements published in patent publication US7893023B2, “Prodrugs activated by plasmin and their use in cancer chemotherapy” (priority 2000, dated 2011).

Test system: B16-B16 melanoma cells
Experiment: Uptake by B16-B16 cells
Type: cell-based, murine
Conditions: B16-B16 cells incubated with the compound
Description: This experiment was conducted to evaluate whether the prodrugs were able to enter cultured cells in their non-hydrolyzed forms. In addition, it was desired to estimate the capacity of the prodrugs to induce detectable levels of products of their enzymatic hydrolysis (DNR and its amino acid derivatives) inside B16-B16 cells. N-Leu-Leu-DNR was chosen as a reference drug since it is the product that is directly liberated by plasmin from Compound II, DNR.
Confluent B16-B16 melanoma cell cultures were incubated in the presence of 17.24 μM dilutions in the serum-containing DMEM-F12 medium of either Compound I, DNR, Compound II, DNR, or N-Leu-Leu-DNR. At determined time points (1, 3, 5 and 24 hours), the cells were washed, harvested and lysed by ultrasonication. The concentration of the drugs and metabolites in the cell lysates were determined after extraction and HPLC analysis (See General Methods, Section J.). The amounts of anthracycline derivatives found per mg of protein were then compared.

## D-Ala-Leu-Lys-Leu-Leu-DNR [Compound II, DNR]
  N-Leu-Leu-DNR found inside cells: No traces
